{"source": "patent US20100093623A1", "about": "“COMPOSITIONS AND METHODS FOR […]-LIKE RECEPTOR ACTIVITY AND USES THEREOF” (Burnham Institute for Medical Research, priority 2008, published 2010)", "note": "No end group written: not given here."}
{"target": "T1, NLRP1 (Homo sapiens, UniProt Q9C000)", "T1 sequence (Q9C000 1-1473)": "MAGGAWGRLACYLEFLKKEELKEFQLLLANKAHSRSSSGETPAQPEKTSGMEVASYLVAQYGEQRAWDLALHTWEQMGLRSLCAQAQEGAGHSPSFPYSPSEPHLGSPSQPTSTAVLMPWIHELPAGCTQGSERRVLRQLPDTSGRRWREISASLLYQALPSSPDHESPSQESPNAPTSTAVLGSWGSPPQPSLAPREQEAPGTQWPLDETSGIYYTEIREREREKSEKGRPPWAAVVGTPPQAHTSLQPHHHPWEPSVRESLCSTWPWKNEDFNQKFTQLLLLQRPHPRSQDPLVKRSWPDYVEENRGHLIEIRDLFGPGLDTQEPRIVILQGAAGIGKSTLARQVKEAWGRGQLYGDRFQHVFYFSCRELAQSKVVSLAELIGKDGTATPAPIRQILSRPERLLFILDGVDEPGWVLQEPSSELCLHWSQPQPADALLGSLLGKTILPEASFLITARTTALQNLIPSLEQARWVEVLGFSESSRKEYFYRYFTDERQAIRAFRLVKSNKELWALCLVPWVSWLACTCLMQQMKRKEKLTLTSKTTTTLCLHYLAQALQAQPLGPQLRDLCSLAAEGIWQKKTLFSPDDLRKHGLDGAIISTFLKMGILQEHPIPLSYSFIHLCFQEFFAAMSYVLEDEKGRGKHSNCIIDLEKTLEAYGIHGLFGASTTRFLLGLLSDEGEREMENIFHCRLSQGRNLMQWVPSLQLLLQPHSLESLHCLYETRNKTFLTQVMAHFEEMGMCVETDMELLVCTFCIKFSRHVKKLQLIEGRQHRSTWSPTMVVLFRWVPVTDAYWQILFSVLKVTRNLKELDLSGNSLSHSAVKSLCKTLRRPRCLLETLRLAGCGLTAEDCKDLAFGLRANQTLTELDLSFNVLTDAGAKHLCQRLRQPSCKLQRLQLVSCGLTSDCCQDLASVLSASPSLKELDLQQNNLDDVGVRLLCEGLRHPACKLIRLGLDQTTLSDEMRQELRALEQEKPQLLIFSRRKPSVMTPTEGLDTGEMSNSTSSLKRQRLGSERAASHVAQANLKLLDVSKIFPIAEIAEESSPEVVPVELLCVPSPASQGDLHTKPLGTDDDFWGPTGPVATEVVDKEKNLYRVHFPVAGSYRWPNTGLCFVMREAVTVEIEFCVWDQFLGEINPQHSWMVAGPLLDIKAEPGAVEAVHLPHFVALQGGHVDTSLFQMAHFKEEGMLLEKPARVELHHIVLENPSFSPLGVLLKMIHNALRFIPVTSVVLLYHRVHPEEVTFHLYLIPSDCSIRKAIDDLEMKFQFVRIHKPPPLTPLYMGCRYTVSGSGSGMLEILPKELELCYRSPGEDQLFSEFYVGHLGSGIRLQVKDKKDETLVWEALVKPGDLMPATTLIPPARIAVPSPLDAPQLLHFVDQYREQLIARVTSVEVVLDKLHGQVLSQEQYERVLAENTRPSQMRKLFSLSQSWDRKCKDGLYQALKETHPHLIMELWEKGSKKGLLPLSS", "test": "in vitro reconstituted NLRP1 inflammasome: Caspase-1 activity by hydrolysis of Ac-WEHD-AMC", "assay_type": "biochemical", "conditions": "peptide 50 nM; NLRP1 8.5 nM, pro-Caspase-1 8.5 nM, ATP, Mg2+, MDP"}
{"substance": "DAGDVGAAPPGAAPAPGIFS (Synthetic Bcl-2 Loop peptide) [Bcl-2 31-50]", "NLRP1-mediated Caspase-1 activation (Caspase-1 activity)": "inactive"}
{"substance": "GAAPAPGIFSSQPGHTPHPA (Synthetic Bcl-2 Loop peptide) [Bcl-2 41-60]", "NLRP1-mediated Caspase-1 activation (Caspase-1 activity)": "inactive"}
{"substance": "PLQTPAAPGAAAGPALSPVP [Bcl-2 71-90]", "NLRP1-mediated Caspase-1 activation (Caspase-1 activity)": "sufficient to potently inhibit NLRP1"}
{"substance": "VGAAPPGAAPAPGIFSSQPGHTPHPAASRDPVARTSPLQTPAAPGAAAG [Bcl-2 Loop 35-83]", "NLRP1-mediated Caspase-1 activation (Caspase-1 activity)": "inhibited NLRP1-mediated Caspase-1 activation to nearly baseline levels"}
{"target": "T1, NLRP1", "test": "in vitro reconstituted NLRP1 inflammasome: Caspase-1 activity by hydrolysis of Ac-WEHD-AMC", "assay_type": "biochemical", "conditions": "protein or peptide 17 nM; NLRP1 8.5 nM, pro-Caspase-1 8.5 nM, ATP, Mg2+, MDP"}
{"substance": "Bcl-2: anti-apoptotic protein; recombinant GST-fusion lacking C-terminal transmembrane domain (SEQ ID NO:3/4)", "NLRP1-mediated Caspase-1 activation (Caspase-1 activity)": "suppress in vitro reconstituted NLRP1 inflammasome"}
{"substance": "Bcl-XL: anti-apoptotic protein; recombinant GST-fusion lacking C-terminal transmembrane domain", "NLRP1-mediated Caspase-1 activation (Caspase-1 activity)": "suppress in vitro reconstituted NLRP1 inflammasome"}
